Laboratory results published in article PMC6947571, “An Orthologue of the Retinoic Acid Receptor (RAR) Is Present in the Ecdysozoa Phylum Priapulida” (Genes, 2019).

By UniProt entry, the sequences of proteins in these tests, tags left out. Residues count along the entry.
UniProt P13631, 156-454 limits assumed: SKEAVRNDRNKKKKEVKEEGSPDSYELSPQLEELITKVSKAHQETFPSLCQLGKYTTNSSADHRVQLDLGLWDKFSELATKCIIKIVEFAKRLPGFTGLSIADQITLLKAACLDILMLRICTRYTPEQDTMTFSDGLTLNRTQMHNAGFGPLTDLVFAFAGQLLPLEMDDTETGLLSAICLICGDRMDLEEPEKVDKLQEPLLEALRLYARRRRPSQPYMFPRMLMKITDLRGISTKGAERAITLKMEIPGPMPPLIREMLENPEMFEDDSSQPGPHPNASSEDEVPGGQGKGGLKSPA
UniProt A0A5P8FS51, entry or part of it: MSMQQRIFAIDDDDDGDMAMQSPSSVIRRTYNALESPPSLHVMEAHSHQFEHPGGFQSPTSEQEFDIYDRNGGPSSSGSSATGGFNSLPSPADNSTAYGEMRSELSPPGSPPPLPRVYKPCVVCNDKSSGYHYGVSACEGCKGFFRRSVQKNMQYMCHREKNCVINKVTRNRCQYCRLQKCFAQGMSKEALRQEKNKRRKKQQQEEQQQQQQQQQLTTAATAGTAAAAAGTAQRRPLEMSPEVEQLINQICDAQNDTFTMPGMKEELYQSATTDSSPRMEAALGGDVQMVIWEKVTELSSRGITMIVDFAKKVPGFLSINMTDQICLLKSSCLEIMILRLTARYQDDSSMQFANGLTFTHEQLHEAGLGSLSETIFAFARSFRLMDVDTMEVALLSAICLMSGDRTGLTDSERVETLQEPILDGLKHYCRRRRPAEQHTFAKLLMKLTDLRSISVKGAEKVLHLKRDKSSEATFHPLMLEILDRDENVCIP

Key:
[1] = biological target: T1, HsaRARγ (pBIND-HsaRARγ-LBD) (Homo sapiens, UniProt P13631); details: agonist; 0.1, 1 and 10 μM; 24 h; 37 °C; positive control
T1 construct: gene RARG

[2] = biological target: T2, human RAR/RXR heterodimer (pBIND-HsaRARγ-LBD / pACT-HsaRXRγ-LBD) (Homo sapiens, UniProt P13631); details: agonist; 10 μM; 24 h; 37 °C; positive control
T2 construct: gene RARG

[3] = biological target: PcauRAR LBD (trigger factor hybrid protein) (Priapulus caudatus, UniProt A0A5P8FS51); details: 4 °C, labelled compound

## CC1=C(/C=C/C(C)=C/C=C/C(C)=C/C(=O)O)C(C)(C)CCC1 [ATRA]
[1]
  fold-induction: but at a lesser degree than HsaRARγ (Figure 3A)
[2]
  fold-induction: the RAR/RXR heterodimer activates luciferase transcription upon binding to the tested retinoids
[3]; 10 nM [3H]ATRA displaced by unlabelled ATRA
  competitive radioligand binding, hydroxyapatite precipitation: The ability of PcauRAR to bind to ATRA and 9cisRA was clearly demonstrated

## CC1=C(/C=C/C(C)=C/C=C/C(C)=C\C(=O)O)C(C)(C)CCC1 [13cisRA]
[1]
  fold-induction: but at a lesser degree than HsaRARγ (Figure 3A)
[2]
  fold-induction: the RAR/RXR heterodimer activates luciferase transcription upon binding to the tested retinoids

## CC1=C(/C=C/C(C)=C\C=C\C(C)=C\C(=O)O)C(C)(C)CCC1 [9cisRA]
[1]
  fold-induction: but at a lesser degree than HsaRARγ (Figure 3A)
[2]
  fold-induction: the RAR/RXR heterodimer activates luciferase transcription upon binding to the tested retinoids
[3]; 10 nM [3H]ATRA or [3H]9cisRA displaced by unlabelled 9cisRA
  competitive radioligand binding, hydroxyapatite precipitation: The ability of PcauRAR to bind to ATRA and 9cisRA was clearly demonstrated

Read-outs that look alike come from different tables or passages of the source.
